By UniProt entry, the sequences of proteins in these tests, tags left out.
UniProt P0DMS8, whole entry: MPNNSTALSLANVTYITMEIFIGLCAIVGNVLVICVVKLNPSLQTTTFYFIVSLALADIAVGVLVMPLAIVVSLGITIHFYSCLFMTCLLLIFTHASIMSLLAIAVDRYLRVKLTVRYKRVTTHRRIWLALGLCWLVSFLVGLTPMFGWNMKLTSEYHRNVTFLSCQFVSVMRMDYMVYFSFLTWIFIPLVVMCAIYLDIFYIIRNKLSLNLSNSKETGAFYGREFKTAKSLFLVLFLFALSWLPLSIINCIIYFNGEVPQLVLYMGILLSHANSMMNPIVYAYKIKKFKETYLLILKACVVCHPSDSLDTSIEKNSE

In paper PMC3224645 (Purinergic Signalling, 2011):

Biological target: hA3R (Homo sapiens, UniProt P0DMS8)
Experiment: cAMP accumulation assay
Assay type: cell-based

effect of ADA on the agonist's inhibition of cAMP production (agonist 10 μM + ADA 0.8 IU/ml): insensitive to the enzyme
inhibition of forskolin-stimulated cAMP production (agonist at 10 μM): more potent effect
Structure (SMILES): CNC(=O)[C@H]1O[C@@H](n2cnc3c(NCc4cccc(I)c4)nc(Cl)nc32)[C@H](O)[C@@H]1O [Cl-IB-MECA, 2-chloro-N ^6-(3-iodobenzyl)adenosine-5′-N-methylcarboxamide]
